Data reported in patent US11224609B2, “Mithramycin derivatives having increased selectivity and anti-cancer activity” (University of Kentucky Research Foundation, priority 2017, dated 2022).

Test system: VCaP prostate cancer cells (TMPRSS2-ERG)
Test: 72 h GI50 assay in VCaP
Conditions: read-out: VCaP Prostate Cancer TMPRSS2-ERG GI50, 72 h growth inhibition

In the case of “Mithramycin SA Phenylalanine [MTMSA-Phe (4), reference compound]”, the GI50 was 150 nM.
